## scFv variants of Ab-14 (heavy chain) against a SARS-CoV-2 spike peptide

Data: MIT Lincoln Laboratory AlphaSeq set, Li et al. 2023, doi:10.1038/s41467-023-39022-2, as distributed in FLAb.

Target: peptide PDVDLGDISGINAS, taken from heptad repeat 2 (HR2) of SARS-CoV-2 spike.

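The starting antibody came from a phage panning campaign against this peptide. These sequences belong to a second round, designed from the earlier measurements on random variants of the parent. Their group label is 14H_GPLM_Gibbs (GPLM: also part of the Gaussian process libraries; Gibbs: Gibbs sampling; a sequence that several methods proposed may carry one label only). The assay is AlphaSeq: two haploid yeast populations carry antibody and antigen on their surface. Mating (16 h, 30 °C) was followed by selection of diploids and sequencing of their barcodes. Each replicate has its own calibration line, from reference interactions of the BCL2 family. The assay was run in six technical replicates.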

The variants keep the light chain, the linker and the frameworks of Ab-14 (scFv order VH, the linker GGGGSGGGGSGGGGS, VL).
VH: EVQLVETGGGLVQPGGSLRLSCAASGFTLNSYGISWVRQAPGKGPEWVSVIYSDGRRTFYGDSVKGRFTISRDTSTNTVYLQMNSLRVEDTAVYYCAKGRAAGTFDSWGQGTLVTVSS
VL: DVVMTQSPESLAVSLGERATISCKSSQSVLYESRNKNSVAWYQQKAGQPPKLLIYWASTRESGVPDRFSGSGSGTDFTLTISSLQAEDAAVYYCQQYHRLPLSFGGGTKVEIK

Positions count from residue 1 of the parent VH; T28E puts E in place of T.
Scale: log10 of Kd in nM, estimated from mating counts; low values are strong binders.
Averages over replicates are reported, and they cover detected replicates only.
An entry "n.d." has no value in the source: the pair was not observed among the diploids in that replicate. This suggests poor binding but is not conclusive.
A sequence measured in both rounds can read differently, since the two assays cover different ranges.

changes | log10 Kd (nM) by replicate | mean log10 Kd (nM) | empty controls
T28E R100K A101T S107T | n.d. n.d. n.d. n.d. n.d. 1.95 | 1.95 | 0 of 18
T28N G61V R100Q A101V | 0.70 0.55 n.d. 0.59 0.69 1.37 | 0.78 | 0 of 18
T28E R100G A101V S107T | -0.27 -0.28 -0.09 -0.37 -0.13 0.72 | -0.07 | 0 of 18
T28D G61S A101E | -0.16 -0.48 -0.28 -0.60 -0.27 -0.15 | -0.32 | 1 of 18 (3.06)
T28N S31T R100Q | 1.37 0.69 0.77 0.87 1.19 0.84 | 0.96 | 0 of 18
T28A S31E G61K R100K | 0.36 0.24 0.60 0.20 0.52 0.38 | 0.38 | 0 of 18
T28D G61V R100N | 0.06 0.00 -0.07 -0.14 0.36 0.39 | 0.10 | 0 of 18
N30E R56K G61A S63Q | 0.96 1.99 1.83 n.d. n.d. 1.63 | 1.60 | 0 of 18
T28N G61V A101Q S107A | 1.16 1.70 1.08 1.80 1.95 1.14 | 1.47 | 0 of 18
S63D R100E | 1.58 1.67 0.91 1.15 1.54 1.56 | 1.40 | 0 of 18
T28E S53A R100Q S107T | -0.21 -0.80 -0.61 -0.61 -0.59 -0.54 | -0.56 | 0 of 18
R56K R100W S107L | n.d. n.d. n.d. n.d. n.d. 2.41 | 2.41 | 0 of 18
T28S S31D R100T | -0.35 0.10 -0.89 -0.86 -0.48 -0.68 | -0.53 | 0 of 18
T28E G61I R100Q A101T | 0.84 0.70 1.02 0.77 1.20 0.87 | 0.90 | 0 of 18
G26K T28N R100K A101T | n.d. n.d. n.d. 2.28 1.68 1.94 | 1.96 | 0 of 18
S31D R100K A101I | 0.83 0.26 -0.02 -0.12 -0.17 0.78 | 0.26 | 0 of 18
R100K A101E | 0.09 0.59 0.09 0.13 0.99 0.53 | 0.41 | 0 of 18
T28E G61A R100V A101T | 0.59 0.52 0.52 0.99 0.05 0.13 | 0.47 | 0 of 18
T28S S31E R100K A101S | 0.64 0.15 0.18 0.35 -0.01 0.51 | 0.30 | 0 of 18
T28K G61S R100K A101T | 0.56 0.91 0.37 0.86 0.40 0.45 | 0.59 | 0 of 18
T28H G61A R100H A101E | 0.46 0.37 0.01 0.24 0.32 1.00 | 0.40 | 0 of 18
R56K R100E S107T | 1.08 1.04 1.12 0.89 1.10 1.22 | 1.08 | 1 of 18 (3.96)
T28S A101Q S107A | 1.99 2.25 0.97 0.65 0.72 0.87 | 1.24 | 1 of 18 (1.44)
T28D G61A S63R R100Q A101T | 0.31 0.23 0.66 0.41 0.48 0.25 | 0.39 | 1 of 18 (4.03)
R56K G61S | 1.56 0.23 0.77 0.68 0.31 0.35 | 0.65 | 0 of 18
T28S G61I R100H S107D | n.d. 1.70 2.88 0.81 2.15 1.44 | 1.80 | 0 of 18
T28S S31E A101E S107N | 0.05 -0.35 -0.48 -0.38 -0.23 -0.30 | -0.28 | 1 of 18 (2.58)
T28N G61V A101V | 1.63 0.88 0.96 1.25 0.85 1.89 | 1.24 | 1 of 18 (2.44)
T28S G61A R100K A101E S107T | n.d. n.d. -0.53 -1.84 -1.29 n.d. | -1.22 | 0 of 18
T28Q S31E A101T S107K | 0.38 -0.44 0.57 0.02 0.88 0.32 | 0.29 | 0 of 18
R100K A101N S107T | n.d. n.d. n.d. n.d. n.d. n.d. | n.d. | 0 of 18
T28S S31D R100N | 0.50 0.51 0.71 0.21 -0.06 0.54 | 0.40 | 0 of 18
T28D G61V R100D | 0.12 0.55 1.66 -0.03 0.30 0.49 | 0.51 | 0 of 18
T28E G61A A101N S107T | 0.49 0.28 0.47 -0.09 0.35 0.36 | 0.31 | 0 of 18
G61I R100K A101Q | 1.16 1.33 0.74 1.50 1.34 1.72 | 1.30 | 1 of 18 (2.52)
T28S S31W G61I R100N | 0.60 1.80 1.59 1.24 n.d. n.d. | 1.31 | 0 of 18
T28D G61D A101N | 0.62 0.45 0.10 0.16 0.44 0.42 | 0.36 | 2 of 18 (3.75)
T28D G61K A101Q | 0.00 -0.16 -0.02 -0.01 -0.17 -0.07 | -0.07 | 1 of 18 (1.51)
T28E G61I R100T | 0.42 0.31 0.27 0.08 0.28 0.35 | 0.29 | 1 of 18 (2.03)
G61A R100N S107T | 0.59 0.19 0.51 0.32 0.49 0.79 | 0.48 | 0 of 18
T28E R100V A101T | 0.58 0.49 0.30 0.50 1.04 0.44 | 0.56 | 0 of 18
T28H G61I R100E | 1.40 1.23 1.69 n.d. 1.66 2.98 | 1.79 | 0 of 18
T28D G61A A101T S107A | 0.13 -0.24 0.16 -0.18 -0.21 0.15 | -0.03 | 0 of 18
T28D R100Q A101T S107L | 0.53 0.11 0.01 0.06 0.35 0.04 | 0.18 | 0 of 18
T28D G61V A101Y | 0.11 -0.05 1.48 1.33 -0.04 0.52 | 0.56 | 1 of 18 (1.39)
T28D R100Q S107R | 1.48 0.65 0.42 0.53 0.78 0.74 | 0.77 | 1 of 18 (2.63)
T28Q G61Q S63K A101T | 1.47 1.62 1.09 2.06 1.46 1.59 | 1.55 | 0 of 18
T28S R100K S107Q | n.d. 1.31 n.d. 1.10 1.74 1.73 | 1.47 | 1 of 18 (1.74)

8 of these entries, quoted again:

changes,log10 Kd (nM) by replicate,mean log10 Kd (nM),empty controls
S31D R100K A101I,0.83 0.26 -0.02 -0.12 -0.17 0.78,0.26,0 of 18
T28E R100V A101T,0.58 0.49 0.30 0.50 1.04 0.44,0.56,0 of 18
T28D G61A S63R R100Q A101T,0.31 0.23 0.66 0.41 0.48 0.25,0.39,1 of 18 (4.03)
T28D G61K A101Q,0.00 -0.16 -0.02 -0.01 -0.17 -0.07,-0.07,1 of 18 (1.51)
T28K G61S R100K A101T,0.56 0.91 0.37 0.86 0.40 0.45,0.59,0 of 18
T28D G61S A101E,-0.16 -0.48 -0.28 -0.60 -0.27 -0.15,-0.32,1 of 18 (3.06)
T28Q S31E A101T S107K,0.38 -0.44 0.57 0.02 0.88 0.32,0.29,0 of 18
T28Q G61Q S63K A101T,1.47 1.62 1.09 2.06 1.46 1.59,1.55,0 of 18

The authors averaged sequences with at least three values out of six and counted those with two or fewer as poor binders.
Empty control strains, which show no peptide, gave a signal in 1% of pairings with all heavy chain designs; the median was 2.08 and 95% of these signals were weaker than 0.84. No background was subtracted. Also given: how often the same scFv was detected with the empty control strains, with their mean in brackets.
The parent sequence was in this pool as ten entries: three were never detected, three once, and four in most replicates, with averages from 0.34 to 2.37.